{"sequences": {"note": "Sequences of proteins named here, by UniProt entry; tags and fusion partners are left off.", "UniProt Q96SD1, whole entry": "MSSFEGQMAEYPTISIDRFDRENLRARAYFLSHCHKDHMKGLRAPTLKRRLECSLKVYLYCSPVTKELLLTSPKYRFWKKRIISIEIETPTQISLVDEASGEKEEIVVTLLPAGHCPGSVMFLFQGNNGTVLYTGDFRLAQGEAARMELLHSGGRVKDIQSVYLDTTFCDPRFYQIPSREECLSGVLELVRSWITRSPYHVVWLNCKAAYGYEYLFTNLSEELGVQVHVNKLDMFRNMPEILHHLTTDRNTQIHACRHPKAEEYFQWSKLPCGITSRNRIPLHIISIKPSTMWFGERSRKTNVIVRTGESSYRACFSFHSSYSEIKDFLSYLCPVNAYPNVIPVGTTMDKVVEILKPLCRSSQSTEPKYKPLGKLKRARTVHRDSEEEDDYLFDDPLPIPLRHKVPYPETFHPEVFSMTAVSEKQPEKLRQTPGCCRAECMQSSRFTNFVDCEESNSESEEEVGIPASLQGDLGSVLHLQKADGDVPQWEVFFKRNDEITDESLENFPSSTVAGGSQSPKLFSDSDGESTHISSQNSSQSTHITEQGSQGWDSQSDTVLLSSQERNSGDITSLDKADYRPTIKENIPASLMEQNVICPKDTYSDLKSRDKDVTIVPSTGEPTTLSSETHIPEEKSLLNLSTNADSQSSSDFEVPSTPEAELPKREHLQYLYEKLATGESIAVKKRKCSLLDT"}, "source": "PubChem BioAssay AID686954", "about": "(Sanford-Burnham Center for Chemical Genomics, 2013)", "note": "This is a selection; strong and weak results do not stand in their true shares. Activity calls are given as the source filed them.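 Rule for the calls: active = at 10 µM dose, at least 30% inhibition, measured as corrected fluorescence normalized to stimulator and neutral control wells; inactive = the rest.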"}
{"target": "Protein artemis (Homo sapiens) (UniProt Q96SD1)", "experiment": "Artemis endonuclease inhibitors, primary screen, biochemical, fluorescence intensity, FAM/BHQ-1 hairpin substrate (AID 686954)", "details": "recombinant Artemis, quenched FAM hairpin cleavage fluorescence; at 10 µM; stronger effect = higher value"}
{"smiles": "c1ccc(CN2CCC(Nc3ccccc3)CC2)cc1", "inhibition": "inactive: 5.76%"}
{"smiles": "N/C(=N\\O)c1c(N)no[n+]1[O-]", "inhibition": "inactive: -12.4%"}
{"smiles": "CCC(CO)(C(=O)OC1CN2CCC1CC2)c1ccccc1", "note": "(stereo not given)", "inhibition": "inactive: -1%"}
{"smiles": "N#CC1(Nc2ccccc2)CCN(CCc2ccccc2)CC1", "inhibition": "inactive: 2.98%"}
{"smiles": "O=C(NCC1(N2CCOCC2)CCCCC1)c1cc(=O)[nH]c2ccccc12", "inhibition": "inactive: -2.15%"}
